This note sets out measurements from US9238647B2, “P2X3 receptor antagonists for treatment of pain” (Merck Sharp & Dohme Corp., priority 2009, dated 2016).

Sequences of proteins named here, by UniProt entry; tags and fusion partners are left off.
UniProt P56373, whole entry: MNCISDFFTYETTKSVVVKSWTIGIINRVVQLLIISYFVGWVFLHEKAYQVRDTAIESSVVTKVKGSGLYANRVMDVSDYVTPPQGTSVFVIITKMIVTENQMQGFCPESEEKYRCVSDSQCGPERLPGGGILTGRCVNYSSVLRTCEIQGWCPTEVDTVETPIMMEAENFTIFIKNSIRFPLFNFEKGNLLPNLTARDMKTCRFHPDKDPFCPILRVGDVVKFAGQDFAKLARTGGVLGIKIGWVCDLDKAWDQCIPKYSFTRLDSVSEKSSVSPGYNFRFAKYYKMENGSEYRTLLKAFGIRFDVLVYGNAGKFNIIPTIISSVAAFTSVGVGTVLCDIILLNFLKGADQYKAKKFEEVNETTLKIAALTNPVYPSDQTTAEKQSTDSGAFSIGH

pIC50: −log10 of the molar value.

This experiment has as its target human P2X3 (Homo sapiens, UniProt P56373). Description: Intracellular Calcium Measurement to Assess Antagonist Affinity (FLIPR, Fluo-4, α,β-meATP agonist). To be noted: cells expressing human P2X3; agonist α,β-meATP at EC50; antagonist added 10 min before agonist. An excerpt: Generation of a Human P2X3 and P2X2/3 Stable Cell Line—Human P2X3 receptor cDNA (Accession number NM_002559) was subcloned as a 5′XhoI and 3′HindIII fragment into the expression vector pcDNA5/FRT (Invitrogen). Human P2X2 receptor cDNA (Accession number NM_174873) was subcloned as a 5′EcoRI and 3′NotI fragment into the expression vector pIRESneo2 (BD Biosciences Clontech). The human P2X3 expression construct was transfected using Lipofectamine 2000 (Invitrogen) into Flp-in-293 cells (Invitrogen) according to the manufacturer's directions. Cells positive for flp-mediated recombination of […] P2X3 were selected using 150 μg/ml hygromycin. […]
Intracellular Calcium Measurement to Assess Antagonist Affinity—A fluorescent imaging plate reader (FLIPR; Molecular Devices) was used to monitor intracellular calcium levels using the calcium-chelating dye Fluo-4 (Molecular Probes). The excitation and emission wavelengths used to monitor fluorescence were 488 nm and 530 nm, respectively. […] During this period fluorescence data is collected at 3 sec intervals followed by 10 sec intervals. […] Following agonist addition fluorescence was measured at 5 sec intervals and analyzed based on the increase in peak relative fluorescence units (RFU) compared to the basal fluorescence. […]

Consider `Cc1ccc(-c2cc(C(=O)N[C@H](C)c3ccc(C(F)(F)F)[n+]([O-])c3)cn3c(-c4ccccn4)nnc23)cc1`, for which the pIC50 is 8.19.
